IC50 data for one compound are collected here from patent publication US20240368139A1, “NOVEL MODULATORS OF EHMT1 AND EHMT2 AND THERAPEUTIC USE THEREOF” (Tango Therapeutics, Inc., priority 2021, published 2024).

pIC50: −log10 of the molar value.

This test has as its target T1, human EHMT2 913-1193 (Homo sapiens, UniProt Q96KQ7).
T1 sequence (Q96KQ7 913-1193): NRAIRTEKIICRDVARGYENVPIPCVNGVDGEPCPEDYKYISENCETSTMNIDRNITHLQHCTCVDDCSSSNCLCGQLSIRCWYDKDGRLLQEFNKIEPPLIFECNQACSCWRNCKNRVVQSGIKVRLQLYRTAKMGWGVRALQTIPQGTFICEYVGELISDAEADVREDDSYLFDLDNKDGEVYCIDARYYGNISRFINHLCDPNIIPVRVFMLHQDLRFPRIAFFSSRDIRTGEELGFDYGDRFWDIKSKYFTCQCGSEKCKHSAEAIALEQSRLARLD
Nature of the test: EHMT2 enzyme assay on histone peptide substrate (3H-SAM SPA). Particulars: EHMT2 IC50, recombinant human EHMT2 913-1193, histone peptide substrate.

`CNc1cc(C)nc(Nc2ccc(OC)c(C3=CCN(C)CCC3)c2)n1` [Reference Compound A, reference compound]: the pIC50 was 6.30 to 7.00.
